From PMC9599641, “TNP Analogues Inhibit the Virulence Promoting IP3-4 Kinase Arg1 in the Fungal Pathogen Cryptococcus neoformans” (Biomolecules, 2022)

System: Nc1ncnc2c1ncn2[C@@H]1O[C@H](COP(=O)(O)OP(=O)(O)OP(=O)(O)O)[C@@H](O)[C@H]1O
Assay: purified protein, by the assay type
Details: other: 200 µM IP3, ATP 25–400 µM; mean ± SEM; pH 6.8

CnArg1 (Cryptococcus neoformans H99)
Km: 300 ± 67 µM | Vmax: 12 ± 1.5 µmol ATP/mg protein/min
